Data reported in ChEMBL document CHEMBL1821552, “Synthesis and in vitro evaluation of xylene linked carbamoyl bis-pyridinium monooximes as reactivators of organophosphorus (OP) inhibited electric eel acetylcholinesterase (AChE)” (2011).
Activity calls are given as the source filed them. No cut-off for these calls is given here.

The chains behind the UniProt entries cited, without tags or fusion partners. Where a name states a change or a piece, a line headed by the entry shows the natural chain unless it says otherwise.
UniProt O42275: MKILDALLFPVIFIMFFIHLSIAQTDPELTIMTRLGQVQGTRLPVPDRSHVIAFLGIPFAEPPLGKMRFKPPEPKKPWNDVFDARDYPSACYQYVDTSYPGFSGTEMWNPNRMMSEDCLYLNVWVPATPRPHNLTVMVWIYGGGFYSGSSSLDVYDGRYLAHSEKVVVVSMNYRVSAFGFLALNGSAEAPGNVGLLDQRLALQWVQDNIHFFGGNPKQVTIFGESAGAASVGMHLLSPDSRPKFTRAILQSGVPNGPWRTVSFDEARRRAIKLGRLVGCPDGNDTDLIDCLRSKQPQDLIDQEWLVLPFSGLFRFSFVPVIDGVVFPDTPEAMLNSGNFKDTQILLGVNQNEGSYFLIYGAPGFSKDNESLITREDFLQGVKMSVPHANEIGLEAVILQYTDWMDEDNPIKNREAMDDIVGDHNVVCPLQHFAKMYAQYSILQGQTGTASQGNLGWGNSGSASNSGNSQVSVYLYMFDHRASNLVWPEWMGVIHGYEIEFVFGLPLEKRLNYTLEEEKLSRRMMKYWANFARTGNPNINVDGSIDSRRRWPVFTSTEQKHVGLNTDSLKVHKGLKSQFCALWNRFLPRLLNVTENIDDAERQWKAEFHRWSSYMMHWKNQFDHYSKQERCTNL

Experiments:
[1] = biological target: Acetylcholinesterase (Electrophorus electricus) (UniProt O42275); assay: Reactivation of diisopropyl phosphorofluoridate-inhibited electric eel AChE activity after 40 mins by Ellman's method relative to control; set-up: scale not given: the % may be the effect or the level left
[2] = biological target: Acetylcholinesterase (Electrophorus electricus) (UniProt O42275); assay: Reactivation of sarin-inhibited electric eel AChE activity after 40 mins by Ellman's method relative to control; set-up: scale not given: the % may be the effect or the level left
[3] = biological target: Acetylcholinesterase (Electrophorus electricus) (UniProt O42275); assay: Reactivation of sarin-inhibited electric eel AChE activity at 0.001 M and pH 8 after 10 mins by Ellman's method relative to control; set-up: scale not given: the % may be the effect or the level left
[4] = biological target: Acetylcholinesterase (Electrophorus electricus) (UniProt O42275); assay: Reactivation of diisopropyl phosphorofluoridate-inhibited electric eel AChE activity at 0.001 M and pH 8 after 10 mins by Ellman's method relative to control; set-up: scale not given: the % may be the effect or the level left
[5] = biological target: Acetylcholinesterase (Electrophorus electricus) (UniProt O42275); assay: Reactivation of diisopropyl phosphorofluoridate-inhibited electric eel AChE activity at 0.0001 M and pH 8 after 10 mins by Ellman's method relative to control
[6] = biological target: Acetylcholinesterase (Electrophorus electricus) (UniProt O42275); assay: Reactivation of VX-inhibited electric eel AChE activity at 0.001 M and pH 8 after 10 mins by Ellman's method relative to control; set-up: scale not given: the % may be the effect or the level left
[7] = biological target: Acetylcholinesterase (Electrophorus electricus) (UniProt O42275); assay: Reactivation of sarin-inhibited electric eel AChE activity at 0.0001 M and pH 8 after 10 mins by Ellman's method relative to control
[8] = biological target: Acetylcholinesterase (Electrophorus electricus) (UniProt O42275); assay: Reactivation of VX-inhibited electric eel AChE activity at 0.0001 M and pH 8 after 10 mins by Ellman's method relative to control
[9] = biological target: Acetylcholinesterase (Electrophorus electricus) (UniProt O42275); assay: Reactivation of VX-inhibited electric eel AChE activity after 30 mins by Ellman's method relative to control; set-up: scale not given: the % may be the effect or the level left

| Compound | Activity [1] [%] | Activity [2] [%] | Activity [3] [%] | Activity [4] [%] | Activity [6] | also measured |
| --- | --- | --- | --- | --- | --- | --- |
| NC(=O)c1ccc[n+](Cc2cccc(C[n+]3ccccc3/C=N/O)c2)c1 | 81 | 83 | 48 | 54 | Active | Activity [5]: Active |
| NC(=O)c1ccc[n+](Cc2ccc(C[n+]3cccc(/C=N/O)c3)cc2)c1 | – | – | – | – | Active | – |
| NC(=O)c1cc[n+](Cc2cccc(C[n+]3ccccc3/C=N/O)c2)cc1 | 41 | 73 | 45 | 48 | Active | Activity [7]: Active |
| NC(=O)c1ccc[n+](Cc2cccc(C[n+]3cccc(/C=N/O)c3)c2)c1 | – | – | – | – | – | Activity [8]: Active |
| NC(=O)c1ccc[n+](Cc2ccc(C[n+]3ccccc3/C=N/O)cc2)c1 | 56 | 75 | 47 | 54 | – | – |
| NC(=O)c1cc[n+](Cc2ccc(C[n+]3cccc(/C=N/O)c3)cc2)cc1 | – | – | – | – | 40% | Activity [8]: Active |
| NC(=O)c1cc[n+](Cc2cccc(C[n+]3cccc(/C=N/O)c3)c2)cc1 | – | – | – | – | 40% | Activity [9]: 45% |
